Assay: Solubility of dosing solutions in 5% dextrose in water
Format: physicochemical
Conditions: 5% dextrose in water (D5W)

**Q.** Which “solubility of dosing solution” value does the source give for “[camptothecin-rvD-Asp-Suc-Tyr^1, Nle^17, 4Hyp^34]hNPY(1-36)-NH2 [Example 92]” here?
**A.** poor solubility
